# In PubChem BioAssay AID602179 (National Center for Advancing Translational Sciences (NCATS), 2012):
# Sequences of proteins named here, by UniProt entry; tags and fusion partners are left off.
# UniProt O75874, whole entry R132H: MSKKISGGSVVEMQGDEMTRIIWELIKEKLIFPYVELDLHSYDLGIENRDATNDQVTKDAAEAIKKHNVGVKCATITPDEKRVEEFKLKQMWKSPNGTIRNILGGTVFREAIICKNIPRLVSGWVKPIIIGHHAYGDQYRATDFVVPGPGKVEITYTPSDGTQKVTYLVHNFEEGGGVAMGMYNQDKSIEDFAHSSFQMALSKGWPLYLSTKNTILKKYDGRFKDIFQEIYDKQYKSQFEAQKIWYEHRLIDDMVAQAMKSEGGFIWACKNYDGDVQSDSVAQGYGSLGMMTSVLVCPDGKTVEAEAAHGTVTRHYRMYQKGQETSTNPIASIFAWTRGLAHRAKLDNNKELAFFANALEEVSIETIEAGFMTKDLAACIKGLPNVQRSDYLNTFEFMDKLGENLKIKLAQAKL
# Only a part is listed here, and it is no random draw. Calls of active or inactive are those of the source. The call rests on the fitted dose curve; in most records, active means well fitted inhibition curve with a large enough effect; inconclusive means small, poorly fitted or top-dose-only effect; inactive means no such curve, though single readings can be large or run the other way.
# Target: Isocitrate dehydrogenase [NADP] cytoplasmic (Homo sapiens) (UniProt O75874)
# Assay: qHTS for Inhibitors of mutant isocitrate dehydrogenase 1 (IDH1): qHTS; further: nearly all actives have a fitted effect of over 65% in size
# Conditions: IDH1-R132H enzyme, NADPH consumption, diaphorase/resazurin fluorescence; at 76.6 µM (top of the series) unless noted
# In short: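 IDH1-R132H (0.5 ug/mL) preincubated 30 min with compound, then NADPH (0.016 mM) and alpha-KG (2 mM) added; 80 min at RT, pH 7.5. Remaining NADPH coupled via diaphorase/resazurin to fluorescence (540/590 nm); concentration-response curves normalized to no-enzyme control.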
# On the % scale 0 is the no-effect control and ±100 the full control effect.
row,Structure (SMILES),"activity change, negative = inhibition"
1,CN(C)C(=O)c1c([N+](=O)[O-])cc([N+](=O)[O-])cc1[N+](=O)[O-],inactive: 10.9%
2,CCN(CC)CC(O)COC(=O)C(O)(c1ccccc1)C1CCCCC1 (stereo unspecified),inactive: 7.73%
3,COc1ccc(OP(C)(=O)Nc2ccc(Br)cc2)cc1 (stereo unspecified),inactive: 1.3%
4,COc1ccccc1OP(C)(=O)Nc1c(C)n(C)n(-c2ccccc2)c1=O (stereo unspecified),inactive: -3.23%
5,O=C(OCCCN1CCCC1)C(O)(c1ccccc1)C1CCCCC1 (stereo unspecified),inactive: 24.9%
6,CP(=O)(Oc1ccccc1)N1CCOC1=O (stereo unspecified),inactive: 1.58%
7,CCc1ccc(OP(C)(=O)Nc2cccnc2)cc1 (stereo unspecified),inactive: 7.26%
8,Cc1c(NP(C)(=O)Oc2ccc(C(C)C)cc2)c(=O)n(-c2ccccc2)n1C (stereo unspecified),inactive: 3.88%
9,O=[N+]([O-])c1cc([N+](=O)[O-])c(Nc2ccccn2)c([N+](=O)[O-])c1,inactive: 25.4%
10,CP(=O)(Nc1ccccn1)Oc1ccccc1 (stereo unspecified),inactive: 0.542%
11,COc1ccccc1OP(C)(=O)Nc1ccc(C)cc1C (stereo unspecified),inactive: -0.687%
12,CCc1ccc(OP(C)(=O)O)cc1,inactive: 2.28%
13,COc1ccccc1OP(C)(=O)Nc1ccc(Br)cc1 (stereo unspecified),inactive: 0.057%
14,COc1ccc(OP(C)(=O)Nc2ccccn2)cc1 (stereo unspecified),inactive: 2.62%
15,CN(C)CCOC(=O)C(O)(c1ccccc1)C1CCCC1 (stereo unspecified),inactive: 7%
16,CCCCCCCCCCCCCCCC1C[N+](C)(C)CCOP(C)(=O)O1 (stereo unspecified),inactive: 2.15%
17,CP(=O)(Nc1ccc(Cl)cc1Cl)Oc1ccccc1 (stereo unspecified),inactive: -8.12%
18,CP(=O)(OCCOc1ccccc1)OCCOc1ccccc1,inactive: 2.89%
19,Cc1cc(C)cc(OP(C)(=O)Nc2cccc(C(F)(F)F)c2)c1 (stereo unspecified),inactive: 0.12%
20,COc1ccccc1OP(C)(=O)Nc1ccc(C)c(C)c1 (stereo unspecified),inactive: 0.929%
21,COc1ccc(OP(C)(=O)Nc2ccccc2Br)cc1 (stereo unspecified),inactive: 0.972%

row,Structure (SMILES),"activity change, negative = inhibition"
1,COc1ccccc1OP(C)(=O)Nc1ccc(C)cc1 (stereo unspecified),inactive: 1.05%
2,Cc1ccc(NP(C)(=O)Oc2ccccc2)c(C)c1 (stereo unspecified),inactive: 0.237%
3,CCOC(=O)c1ccc(NP(C)(=O)Oc2ccccc2)cc1 (stereo unspecified),inactive: -3.76%
4,Cc1cc(C)cc(OP(C)(N)=O)c1 (stereo unspecified),inactive: 6.03%
5,COc1ccccc1OP(C)(=O)Nc1cc(Cl)ccc1C (stereo unspecified),inactive: -7.16%
6,COc1ccc(OP(C)(=O)Nc2cccc(F)c2)cc1 (stereo unspecified),inactive: 5.71%
7,O=[N+]([O-])c1cc([N+](=O)[O-])c(Nc2cccnc2)c([N+](=O)[O-])c1,inactive: 4.29% [at 38.3 µM]
8,O=[N+]([O-])c1ccc2c(c1)C=Nc1ccccc1O2,inactive: 0%
9,CC(C)(C)c1ccc(OP(C)(=O)Nc2ccc(SC(F)(F)F)cc2)cc1 (stereo unspecified),inactive: 2.98%
10,Cc1cccc(C)c1OP(C)(N)=O (stereo unspecified),inactive: 1.18%
11,CCN(CC)CCCOC(=O)C(O)(c1ccccc1)c1ccccc1,inactive: 2.04%
12,CCOC(=O)c1ccc(NP(C)(=O)Oc2ccc(OC)cc2)cc1 (stereo unspecified),inactive: 0.499%
13,O=[N+]([O-])c1cc([N+](=O)[O-])c(O)c([N+](=O)[O-])c1.c1ccc(Oc2ccncc2)cc1,inactive: -2.81%
14,CCOP(C)(=S)SCC(=O)NC(C)C(=O)O (stereo unspecified),inactive: 13.1%
15,CP(=O)(Nc1ccccn1)Oc1ccc(Cl)cc1 (stereo unspecified),inactive: -6.18%
16,Cc1cccc(C)c1OP(C)(=O)Nc1ccc(SC(F)(F)F)cc1 (stereo unspecified),inactive: -1.58%
17,CP(=O)(Nc1ccc(SC(F)(F)F)cc1)Oc1ccc(Cl)cc1 (stereo unspecified),inactive: -7.4%
18,CP(=O)(Oc1ccccc1)OC(c1ccccc1)C(F)(F)F (stereo unspecified),inactive: 0.929%
19,CP(=O)(NC(=O)Nc1ccccc1)Oc1ccccc1 (stereo unspecified),inactive: -6.63%
20,CCc1ccc(OP(C)(=O)N2CCN(c3ccc([N+](=O)[O-])cc3)CC2)cc1 (stereo unspecified),inactive: 1.57%
21,Cc1cc(C)cc(OP(C)(=O)Nc2ccc(SC(F)(F)F)cc2)c1 (stereo unspecified),inactive: 5.42%

row,Structure (SMILES),"activity change, negative = inhibition"
1,CP(=S)(Nn1cnnc1)Oc1ccccc1 (stereo unspecified),inactive: -1.6%
2,CP(=O)(Nc1ccccc1Br)Oc1ccccc1 (stereo unspecified),inactive: 3.69%
3,COc1ccccc1OP(C)(=O)Nc1ccccc1 (stereo unspecified),inactive: 13.1%
4,COc1ccccc1OP(C)(=O)Nc1c(C)cccc1C (stereo unspecified),inactive: 6.03%
5,CN1CCCCC1COC(=O)C1(O)c2ccccc2CCc2ccccc21 (stereo unspecified),inactive: -0.706%
6,CCCOc1ccc(NP(C)(=O)Oc2ccc(Cl)cc2)cc1 (stereo unspecified),inactive: -9.17%
7,CP(=O)(Nc1ccc(SC(F)(F)F)cc1)Oc1ccccc1 (stereo unspecified),inactive: -3.84%
8,CC1=C2N=C(C=C3N=C(C(C)=C4[N-][C@@](C)([C@@H]5N=C1[C@](C)(CCC(=O)NC[C@@H](C)OP(=O)([O-])O[C@H]1[C@@H](O)[C@@H](n6cnc7cc(C)c(C)cc76)O[C@@H]1CO)[C@H]5CC(N)=O)[C@@](C)(CC(N)=O)[C@@H]4CCC(N)=O)[C@@](C)(CC(N)=O)[C@@H]3CCC(N)=O)C(C)(C)[C@@H]2CCC(N)=O.[C-]#N.[Co+3],inactive: 13.9%
9,O=[N+]([O-])c1cc([N+](=O)[O-])c(Nc2nnnn2CCO)c([N+](=O)[O-])c1,inactive: 14.9%
10,O=[N+]([O-])c1cc([N+](=O)[O-])c(-c2cnn(-c3ccccc3)c2)c([N+](=O)[O-])c1,inactive: 4.59%
11,Cc1nc2ccc3ccccc3c2s1.O=[N+]([O-])c1cc([N+](=O)[O-])c(O)c([N+](=O)[O-])c1,inactive: 2.29%
12,O=[N+]([O-])c1cc([N+](=O)[O-])c(-n2nnc3ccccc32)c([N+](=O)[O-])c1,inactive: -6.25%
13,Cc1ccc(C)c(NP(C)(=O)Oc2ccccc2)c1 (stereo unspecified),inactive: 6.46%
14,Cc1cc(C)cc(OP(C)(=O)Nc2ccccn2)c1 (stereo unspecified),inactive: 0.1%
15,CP(=O)(Nc1cccc(Br)c1)Oc1ccccc1 (stereo unspecified),inactive: 4.44%
16,COc1ccccc1OP(C)(=O)Nc1cccc(Br)c1 (stereo unspecified),inactive: 5.77%
17,CCOC(=O)c1ccc(NP(C)(=O)Oc2cc(C)cc(C)c2)cc1 (stereo unspecified),inactive: 10.5%
18,Cc1cc(C)cc(OP(C)(=O)Nc2ccc(C)cc2C)c1 (stereo unspecified),inactive: 1.26%
19,CC1=NCCc2c1[nH]c1ccccc21.O=[N+]([O-])c1cc([N+](=O)[O-])c(O)c([N+](=O)[O-])c1,inactive: -0.506%
